Test results from PubChem BioAssay AID488924 (Johns Hopkins Ion Channel Center, 2010).
The entries are a selection whose mix differs from that of the whole data set. Activity calls are given as the source filed them.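 Rule for the calls: active = membrane potential signal moves up or down beyond 5 SD from buffer-only wells, on both duplicate plates; inactive = the rest.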

Assay: nonspecific voltage dye response without TRPC6 – cell-based, parental HEK293, counter-screen for TRPC6 modulator project, confirmation (AID 488924)
Conditions: parental HEK293, membrane potential dye fluorescence; at 10 µM

SMILES | membrane potential signal change
CN1CCN(CCOC(=O)C(O)(c2ccccc2)c2ccccc2)CC1 | inactive
O=C(OC1CN2CCC1CC2)C1c2ccccc2C=Cc2ccccc21 (configuration not stated) | active: 95.5%
